Antibody variant affinities, Ab-91 heavy chain, assay 2

Target: peptide PDVDLGDISGINAS, taken from heptad repeat 2 (HR2) of SARS-CoV-2 spike.

Each scFv is VL, three GGGGS repeats, VH, as in the parent Ab-91, and differs from it in the CDRs of the heavy chain only.
VL: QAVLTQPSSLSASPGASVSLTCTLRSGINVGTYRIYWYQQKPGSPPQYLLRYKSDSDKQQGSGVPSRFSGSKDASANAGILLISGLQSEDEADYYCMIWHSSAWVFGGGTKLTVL
VH: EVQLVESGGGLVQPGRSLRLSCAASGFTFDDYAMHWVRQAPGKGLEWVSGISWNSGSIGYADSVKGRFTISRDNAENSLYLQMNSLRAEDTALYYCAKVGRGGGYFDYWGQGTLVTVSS

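The starting antibody came from a phage panning campaign against this peptide. Library AAYL51 holds single substitutions and randomly drawn double and triple substitutions in the CDRs. The scFvs were displayed on barcoded MATa yeast, the peptide on MATalpha yeast. The frequency of each diploid, read from paired DNA barcodes, reflects how well the two displayed proteins bind. The ratio of observed to expected reads was calibrated, replicate by replicate, on BCL2-family standards whose Kd was known from biolayer interferometry. There are three technical replicates.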

Variants are written as CDR1, CDR2 and CDR3 of the heavy chain (limits as in the source). Parent: GFTFDDYAMH, GISWNSGSIGYADSVK, VGRGGGYFDY. This list gathers variants with a substitution at G104 (VH, numbered from residue 1). The read-out is the apparent dissociation constant on a log10 scale (nM): the lower, the stronger. Replicates are averaged; those with no signal do not enter the mean. "no signal" means that the variant was in the library but no mating with the target was seen in any replicate; the authors take this as a sign of poor binding, and no number exists. Three control strains display no target. For library AAYL51, 21% of the pairings with them gave a signal, with a median of 4.54 and one signal in twenty below 3.26, so weak values seen in few replicates may be background.

- GFTCDDYAMH | GISWSSGSIGYADSVK | VGRGGEYFDY = no signal (0 of 3 replicates)
- GFTFDDYAMH | GISWNSGSIGYADSVK | VGRGGVYFDY = no signal (0 of 3 replicates)
- GFTFDDYAMH | GISWNSGEIGYYDSVK | VGRGGRYFDY = 1.49 (3 of 3 replicates)
- GFTFDDYAMM | GISWNSGTIGYADSVK | VGRGGAYFDY = 4.57 (2 of 3 replicates)
- GFTFDGYAMH | GISWNSGSIGYADSVK | VGRGGAYFDY = 1.48 (3 of 3 replicates)
- GFTFDDYAMH | GISWNSGSIGYADSVK | VGSGGLYFDR = 2.33 (3 of 3 replicates)
- GFTFDDYAMH | GISWNSGSFGEADSVK | VGRGGSYFDY = 4.06 (1 of 3 replicates)
- GFTFDDYAMH | GISWNSGSIGYADSVK | VGRGGFYFDY = no signal (0 of 3 replicates)
- GFTFDGYAMH | GISWNEGSIGYADSVK | VGRGGAYFDY = 5.71 (3 of 3 replicates)
- GFTFDDYAMH | GIIWNSGSIGYADSVK | VGRGGRYFDY = no signal (0 of 3 replicates)
- GFTFDDYAMH | GISWNSGWIGYADSVK | VARGGFYFDY = no signal (0 of 3 replicates)
- GFTFDDYAMH | GISWISGSIGRADSVK | VGRGGTYFDY = 2.97 (2 of 3 replicates)
- GFTFDDYAMH | GISWPSGSIGYADSVK | VGRGGIYFDY = no signal (0 of 3 replicates)
- GFTFDDYAMV | GISWNSGSTGYADSVK | VGRGGVYFDY = 4.95 (1 of 3 replicates)
- GFTFDDDAMH | GISWNSGSIGYQDSVK | VGRGGNYFDY = no signal (0 of 3 replicates)
- GFTFNDYAMH | GISWNSGSIGYADSVK | VGRGGLYCDY = no signal (0 of 3 replicates)
- GITFDDYAMH | GISWNSGSIGYAKSVK | VGRGGYYFDY = 6.11 (3 of 3 replicates)
- GFTFDDYAMH | IISWNSGSIGYADSVK | VGRGGQYIDY = no signal (0 of 3 replicates)
- GFTFDDYAMH | GISWNSGSIGYADSVK | VGRDGLYFDS = 5.25 (1 of 3 replicates)
- GFTFDDYAMH | GISWNSKSIGYADSVK | VGHGGPYFDY = 2.27 (3 of 3 replicates)
- GFTFDDWAMH | GISWNSGSIGPADSVK | VGRGGAYFDY = no signal (0 of 3 replicates)
- GFTFDDYAMH | GISWNSGSIGYADSVD | VGRGGQYFDY = 0.55 (3 of 3 replicates)
- GWTFDDYAMH | GISWNSGSIGYADFVK | VGRGGLYFDY = no signal (0 of 3 replicates)
- GFTFDDYAMH | GISWHSGSIGYADSVK | VGRGGFYFGY = 3.79 (3 of 3 replicates)
- GFTFDDYTMH | GISWNSGSIGYADSVK | VGRGGAYFDY = no signal (0 of 3 replicates)
- GFTFDDYAMH | GISWNNGSIGYADSVK | VGRGGMSFDY = 4.94 (3 of 3 replicates)
- GFTFDDYAMH | GISWNSGSIGYADSVK | VGRGGPYVDP = 5.18 (2 of 3 replicates)
- GFTFDDYAMH | GISWNSGSIGYAASVK | VGRGGPYFDY = no signal (0 of 3 replicates)
- GFTFDDYFMH | GISWNSGSIGQADSVK | VGRGGMYFDY = 5.33 (1 of 3 replicates)
- GFEFDDYAMH | GIQWNSGSIGYADSVK | VGRGGRYFDY = 2.92 (1 of 3 replicates)
- GFTFRDYAMH | GISWNSGSIGYADSVK | VGSGGTYFDY = no signal (0 of 3 replicates)
- GFTFDDYAMH | GISWNWGSIGYCDSVK | VGRGGYYFDY = no signal (0 of 3 replicates)
- GFTFDDCAMH | GISWNSVSIGYADSVK | VGRGGRYFDY = no signal (0 of 3 replicates)
- GFTFDDYAMH | GISWNHGSIGYADSSK | VGRGGWYFDY = no signal (0 of 3 replicates)
- GFTFDDYAMH | GISWNSGSIGYADSVK | VGRGGCYFDD = 4.11 (1 of 3 replicates)
- GFTFDDVAMH | GASWNSGSIGYADSVK | VGRGGHYFDY = 4.62 (1 of 3 replicates)
- GFTFDDYAMH | GISKNSGSDGYADSVK | VGRGGIYFDY = no signal (0 of 3 replicates)

The 4 strongest on average among those seen in every replicate, once more:

CDR-H1,CDR-H2,CDR-H3,mean log10 Kd (nM),seen in
GFTFDDYAMH,GISWNSGSIGYADSVD,VGRGGQYFDY,0.55,3 of 3
GFTFDGYAMH,GISWNSGSIGYADSVK,VGRGGAYFDY,1.48,3 of 3
GFTFDDYAMH,GISWNSGEIGYYDSVK,VGRGGRYFDY,1.49,3 of 3
GFTFDDYAMH,GISWNSKSIGYADSVK,VGHGGPYFDY,2.27,3 of 3

Parent in this assay: reference entry 1.86, copy in this library 0.88.

Data: MIT Lincoln Laboratory AlphaSeq set, Engelhart et al. 2022, doi:10.1038/s41597-022-01779-4, as distributed in FLAb.